What was measured:
[1] = tested on: Con A-modified electrode interfaces; assay: Antibody selectivity of Con A-modified electrode interfaces; type: binding; conditions: 1.0 mg/mL nonspecific protein; Figure S7
[2] = tested on: DO-1 peptide/HRP-IONPs with Con A-modified SPCEs; assay: Assay specificity (SWV responses of interferents); conditions: 1.0 mg/mL, equivalent MAC immunoisolation conditions; Figure S17
Protocol: Following a 10 min incubation of the antibody–IONP immunocomplexes on Con A-modified SPCEs, and subsequent washing with PBS, 100 μL of the high-sensitivity TMB substrate was added and left to react for 5 min. Square-wave voltammetry (SWV) scans were then conducted from +1.0 to −0.5 V (vs Ag/AgCl), at an amplitude of 20 mV, a potential step of 2 mV, and a frequency of 50 Hz. Specificity tests were carried out with 1.0 mg/mL human serum albumin (HSA), bovine serum albumin (BSA), 1.0% human serum, and 10 μg/mL IgG prepared in a PBS buffer. Recovery assays were conducted using DO-1 antibodies spiked into 1.0 mg/mL BSA or 1.0% human serum (human male AB plasma, Sigma, UK).
Assay specificity was assessed against 1.0 mg/mL BSA, HSA, 1.0% human serum, and 10.0 μg/mL immunoglobulin G (antibody control), with negligible voltammetric responses (<10% of that presented by 50 ng/mL DO-1 antibody) obtained under equivalent MAC immunoisolation conditions (Figure S17). To evaluate the performance in spiked samples, recovery tests were performed in 1.0 mg/mL BSA and diluted human serum. These tests yielded an average recovery of 96.7 ± 3.2% in BSA (Figure S18,n = 3) and 100.7 ± 5.0% in human serum (Figure 6, n = 5), indicative of robustly selective target recruitment.

## human serum albumin [HSA]
[1]
  Response at Con A interface relative to DO-1 antibody: < 10%
[2]
  Voltammetric response relative to 50 ng/mL DO-1 antibody: < 10%
